Earlier results as cited in patent US20230340136A1, “TREATMENT OF CLL” (NOVARTIS AG, priority 2020, published 2023).

The chains behind the UniProt entries cited, without tags or fusion partners. Where a name states a change or a piece, a line headed by the entry shows the natural chain unless it says otherwise.
UniProt Q06187: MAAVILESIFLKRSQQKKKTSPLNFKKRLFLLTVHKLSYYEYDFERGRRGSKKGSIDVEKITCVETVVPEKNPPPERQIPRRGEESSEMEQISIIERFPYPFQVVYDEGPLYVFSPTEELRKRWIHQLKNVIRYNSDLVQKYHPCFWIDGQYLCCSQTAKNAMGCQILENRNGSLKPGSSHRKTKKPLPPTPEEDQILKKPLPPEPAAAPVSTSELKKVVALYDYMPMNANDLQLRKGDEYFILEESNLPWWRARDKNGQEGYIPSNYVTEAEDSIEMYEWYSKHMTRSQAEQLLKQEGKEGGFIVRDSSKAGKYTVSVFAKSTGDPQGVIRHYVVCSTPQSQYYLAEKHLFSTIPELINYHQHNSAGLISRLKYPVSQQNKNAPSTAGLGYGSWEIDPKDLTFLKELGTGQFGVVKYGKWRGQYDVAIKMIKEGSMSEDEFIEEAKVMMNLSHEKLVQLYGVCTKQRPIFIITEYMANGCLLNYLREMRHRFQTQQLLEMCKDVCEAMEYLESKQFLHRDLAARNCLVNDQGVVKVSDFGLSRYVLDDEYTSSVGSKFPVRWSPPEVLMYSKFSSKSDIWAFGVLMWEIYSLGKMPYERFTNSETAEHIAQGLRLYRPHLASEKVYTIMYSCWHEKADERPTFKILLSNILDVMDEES

Target: BTK (Homo sapiens, UniProt Q06187)
Settings: cited from earlier work

## C=CC(=O)Nc1cccc(Nc2nc(Nc3ccc(OCCOC)cc3)ncc2F)c1 [spebrutinib]
  IC50: < 0.5 nM
